pIC50: −log10 of the molar value.
Key:
B*1801 = B*1801 (Homo sapiens, UniProt P01889, A329T/A93T/A95T/C349S/D201E/D54G/D98Y/E176V/E187T/E204Q/E69T/K202T/Q94N/R155S/R180L/S121R/V306I/Y140S/Y195H/Y33H/Y91S); assay: B44 supertype peptide binding, B*1801; settings: CEA-derived B44 peptides; binding affinity, unit inferred
B*4001(B60) = B*4001(B60) (Homo sapiens, UniProt P01889, A65T/A93T/A95T/D138N/D98Y/E176V/E69K/N87E/Q56L/Q94N/R180L/S121R/S35A/S48T/T167S/V36M/W171L/Y33H/Y91S); assay: B44 supertype peptide binding, B*4001; settings: CEA-derived B44 peptides; binding affinity, unit inferred; read-out: B* 4001
B*4002 (B61) = B*4002 (B61) (Homo sapiens, UniProt P01889, A65T/A93T/A95T/D138N/D201E/D98Y/E176V/E204Q/E69K/K202T/N87E/Q56L/Q94N/R180L/S48T/Y33H/Y91S); assay: B44 supertype peptide binding, B*4002; settings: CEA-derived B44 peptides; binding affinity, unit inferred; read-out: B* 4002
B*4402 = B*4402 (Homo sapiens, UniProt P01889, A223V/A65T/A93T/A95T/D201E/D98Y/E176V/E187L/E204Q/E69K/G107R/H137Y/K202T/L105A/L119I/N104T/N87E/Q56L/Q94N/R106L/R155S/R180D/S101N/S121R/S35A/S48T/T118I/V36M/W191S/Y140D/Y91S); assay: B44 supertype peptide binding, B*4402; settings: CEA-derived B44 peptides; binding affinity, unit inferred; read-out: B* 4402
B*4403 = B*4403 (Homo sapiens, UniProt P01889, A223V/A65T/A93T/A95T/D201E/D98Y/E176V/E187L/E204Q/E69K/G107R/H137Y/K202T/L105A/L119I/N104T/N87E/Q56L/Q94N/R106L/R155S/R180L/S101N/S121R/S35A/S48T/T118I/V36M/W191S/Y140D/Y91S); assay: B44 supertype peptide binding, B*4403; settings: CEA-derived B44 peptides; binding affinity, unit inferred; read-out: B* 4403
B*4501 = B*4501 (Homo sapiens, UniProt P01889, A329T/A65T/A93T/A95T/C349S/D138N/D201E/D98Y/E176V/E187L/E204Q/E69K/H137Y/K202T/L119W/N87E/Q56L/Q94N/R155S/R180D/S121R/S35A/S48T/V127L/V306I/V36M/W191S/Y140L/Y33H/Y91S); assay: B44 supertype peptide binding, B*4501; settings: CEA-derived B44 peptides; binding affinity, unit inferred; read-out: B* 4501
[1] = tested on: B44 supertype (B*1801, B*4001, B*4002, B*4402, B*4403, B*4501); assay: B44 supertype cross-binding (degeneracy, alleles bound); design: species or system human; settings: number of the six B44 supertype alleles bound

SMILES	pIC50 (B*1801)	pIC50 (B*4001(B60))	pIC50 (B*4002 (B61))	pIC50 (B*4402)	pIC50 (B*4403)	pIC50 (B*4501)	Degeneracy [1]
CC(C)C[C@H](NC(=O)[C@H](CC(C)C)NC(=O)[C@H](CC(C)C)NC(=O)[C@@H](NC(=O)[C@H](CCC(=O)O)NC(=O)[C@H](CCCCN)NC(=O)CNC(=O)[C@H](CCC(=O)O)NC(=O)[C@H](C)N)C(C)C)C(=O)O [compound 368]	6.44	7.47	7.22	6.75	8.82	6.79	6
CC(C)C[C@H](NC(=O)[C@H](CC(N)=O)NC(=O)[C@H](Cc1c[nH]cn1)NC(=O)[C@@H](NC(=O)[C@H](CC(C)C)NC(=O)[C@H](CC(C)C)NC(=O)[C@H](CC(C)C)NC(=O)[C@@H](NC(=O)[C@H](CCC(=O)O)NC(=O)[C@@H](N)CCCCN)C(C)C)C(C)C)C(=O)O [compound 376]	6.05	–	–	–	–	–	4
CC[C@H](C)[C@H](NC(=O)[C@H](CCC(=O)O)NC(=O)[C@@H](N)CCCNC(=N)N)C(=O)N[C@H](C(=O)N[C@@H](Cc1ccc(O)cc1)C(=O)N1CCC[C@H]1C(=O)N[C@@H](CC(N)=O)C(=O)N[C@@H](C)C(=O)N[C@@H](CO)C(=O)N[C@@H](CC(C)C)C(=O)O)[C@@H](C)CC [compound 377]	5.36	–	–	–	–	6.02	4
CC[C@H](C)[C@H](NC(=O)[C@@H](NC(=O)[C@H](CCC(N)=O)NC(=O)[C@H](CCCNC(=N)N)NC(=O)[C@H](CC(N)=O)NC(=O)CNC(=O)[C@H](CC(=O)O)NC(=O)[C@@H](NC(=O)[C@H](CCCNC(=N)N)NC(=O)[C@H](CCC(=O)O)NC(=O)CN)C(C)C)[C@@H](C)CC)C(=O)O [compound 382]	6.12	–	–	6.06	–	< 5.00	3
C[C@H](NC(=O)[C@H](CC(=O)O)NC(=O)[C@H](CCC(N)=O)NC(=O)[C@@H](NC(=O)[C@H](CCC(=O)O)NC(=O)[C@@H]1CCCN1C(=O)[C@H](CCC(=O)O)NC(=O)[C@@H](N)CS)[C@@H](C)O)C(=O)N[C@H](C(=O)O)[C@@H](C)O [compound 384]	5.40	5.44	–	–	–	–	3
CC(C)C[C@H](NC(=O)[C@H](CC(N)=O)NC(=O)[C@H](CCC(=O)O)NC(=O)CN)C(=O)N[C@@H](CC(N)=O)C(=O)N[C@@H](CC(C)C)C(=O)N[C@@H](CO)C(=O)N[C@@H](CS)C(=O)N[C@@H](Cc1c[nH]cn1)C(=O)N[C@@H](C)C(=O)O [compound 385]	4.84	–	–	5.06	–	6.57	3
CC(C)C[C@H](NC(=O)[C@H](CC(N)=O)NC(=O)[C@H](CCC(=O)O)NC(=O)CN)C(=O)N[C@@H](CC(N)=O)C(=O)N[C@@H](CC(C)C)C(=O)N[C@@H](CO)C(=O)N[C@@H](CS)C(=O)N[C@@H](Cc1c[nH]cn1)C(=O)N[C@@H](C)C(=O)N[C@@H](C)C(=O)O [compound 386]	5.11	5.34	–	5.72	–	–	3
CC[C@H](C)[C@H](NC(=O)[C@H](CCC(=O)O)NC(=O)[C@@H]1CCCN1C(=O)[C@H](CCC(=O)O)NC(=O)[C@@H](N)CS)C(=O)N[C@@H](CCC(N)=O)C(=O)N[C@@H](CC(N)=O)C(=O)N[C@H](C(=O)N[C@H](C(=O)N[C@@H](Cc1ccc(O)cc1)C(=O)N[C@@H](CC(C)C)C(=O)O)[C@@H](C)O)[C@@H](C)O [compound 388]	–	–	–	–	7.22	–	3
CC[C@H](C)[C@H](NC(=O)[C@H](CCC(=O)O)NC(=O)[C@@H]1CCCN1)C(=O)N[C@@H](CCC(N)=O)C(=O)N[C@@H](CC(N)=O)C(=O)N[C@H](C(=O)N[C@H](C(=O)N[C@@H](Cc1ccc(O)cc1)C(=O)N[C@@H](CC(C)C)C(=O)N[C@@H](Cc1c[nH]c2ccccc12)C(=O)N[C@@H](Cc1c[nH]c2ccccc12)C(=O)N[C@H](C(=O)O)C(C)C)[C@@H](C)O)[C@@H](C)O [compound 390]	–	6.29	6.54	6.78	–	–	3
CC(C)C[C@H](NC(=O)[C@H](Cc1ccc(O)cc1)NC(=O)[C@@H](NC(=O)[C@@H](NC(=O)[C@H](CC(N)=O)NC(=O)[C@H](CCC(N)=O)NC(=O)[C@H](C)NC(=O)[C@H](CCC(=O)O)NC(=O)[C@@H]1CCCN1)[C@@H](C)O)[C@@H](C)O)C(=O)N[C@@H](Cc1c[nH]c2ccccc12)C(=O)N[C@@H](Cc1c[nH]c2ccccc12)C(=O)O [compound 393]	–	–	5.51	–	–	–	3
CC(C)[C@H](NC(=O)[C@H](CCCNC(=N)N)NC(=O)[C@H](Cc1ccccc1)NC(=O)[C@H](CCC(N)=O)NC(=O)CNC(=O)[C@@H](NC(=O)[C@H](C)NC(=O)[C@H](CCC(=O)O)NC(=O)[C@H](CCC(=O)O)NC(=O)[C@@H](N)CC(N)=O)[C@@H](C)O)C(=O)O [compound 395]	6.00	< 5.00	< 5.00	–	6.33	6.39	2
CC(C)C[C@H](NC(=O)CNC(=O)[C@H](CO)NC(=O)[C@H](CC(N)=O)NC(=O)[C@H](CCCCN)NC(=O)[C@H](CCC(=O)O)NC(=O)[C@@H](N)[C@@H](C)O)C(=O)N[C@@H](Cc1ccc(O)cc1)C(=O)O [compound 411]	–	5.01	5.15	5.73	6.22	4.99	1
CC(C)C[C@H](NC(=O)[C@H](Cc1ccc(O)cc1)NC(=O)[C@@H](NC(=O)[C@H](C)NC(=O)[C@H](CC(=O)O)NC(=O)[C@H](CCC(N)=O)NC(=O)[C@@H](NC(=O)[C@H](CCC(=O)O)NC(=O)[C@@H]1CCCN1)[C@@H](C)O)[C@@H](C)O)C(=O)N[C@@H](Cc1c[nH]c2ccccc12)C(=O)O [compound 422]	5.03	< 5.00	< 5.00	–	6.04	< 5.00	0
CC(C)C[C@H](NC(=O)[C@H](Cc1ccc(O)cc1)NC(=O)[C@@H](NC(=O)[C@H](C)NC(=O)[C@H](CC(=O)O)NC(=O)[C@H](CCC(N)=O)NC(=O)[C@@H](NC(=O)[C@H](CCC(=O)O)NC(=O)[C@@H]1CCCN1)[C@@H](C)O)[C@@H](C)O)C(=O)N[C@@H](Cc1c[nH]c2ccccc12)C(=O)N[C@@H](Cc1c[nH]c2ccccc12)C(=O)O [compound 423]	5.28	< 5.00	< 5.00	5.55	–	4.93	0
CC(C)[C@H](NC(=O)[C@@H]1CCCN1C(=O)[C@H](CC(N)=O)NC(=O)[C@H](CCC(N)=O)NC(=O)[C@@H](NC(=O)[C@H](CCC(=O)O)NC(=O)[C@@H](N)CS)[C@@H](C)O)C(=O)O [compound 424]	–	4.73	5.13	4.87	6.09	< 5.00	0
CC[C@H](C)[C@H](NC(=O)[C@H](Cc1ccccc1)NC(=O)[C@@H]1CCCN1C(=O)[C@H](CCCCN)NC(=O)[C@@H]1CCCN1C(=O)[C@@H]1CCCN1C(=O)[C@H](CCC(=O)O)NC(=O)[C@H](C)N)C(=O)O [compound 425]	–	< 5.00	< 5.00	4.86	6.04	< 5.00	0
C[C@H](NC(=O)[C@H](CCC(=O)O)NC(=O)[C@@H]1CCCN1C(=O)[C@H](CCC(=O)O)NC(=O)[C@@H](N)CS)C(=O)N[C@@H](CCC(N)=O)C(=O)N[C@@H](CC(N)=O)C(=O)N[C@H](C(=O)N[C@H](C(=O)O)[C@@H](C)O)[C@@H](C)O [compound 428]	4.81	4.95	< 5.00	< 5.00	5.92	–	0
CC(C)C[C@H](NC(=O)[C@H](Cc1ccc(O)cc1)NC(=O)[C@@H](NC(=O)[C@@H](NC(=O)[C@H](CC(N)=O)NC(=O)[C@H](CCC(N)=O)NC(=O)[C@H](C)NC(=O)[C@H](CCC(=O)O)NC(=O)[C@@H]1CCCN1)[C@@H](C)O)[C@@H](C)O)C(=O)O [compound 429]	–	5.51	5.03	< 5.00	5.74	< 5.00	0

From EP1903056A2, “HLA-A1, -A2 -A3, -A24, -B7, and -B44 tumor associated antigen peptides and compositions” (priority 2002, dated 2004)
